## AlphaSeq binding of Ab-14 heavy chain variants to a spike HR2 peptide

From the AlphaSeq antibody data of Li et al. 2023 (doi:10.1038/s41467-023-39022-2), copy in the FLAb collection.

Binding partner: SARS-CoV-2 spike HR2 peptide, sequence PDVDLGDISGINAS.

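The parent was found by panning a naive human phage display library on the peptide. These sequences belong to a second round, designed from the earlier measurements on random variants of the parent. Their group label is 14H_En_HC (En: ensemble of fine-tuned language models; HC: hill climbing; a sequence that several methods proposed may carry one label only). The scFvs were displayed on barcoded MATa yeast, the peptide on MATalpha yeast. Binding brings cells together so that they mate, and sequencing counts the barcode pairs among the diploids. The ratio of observed to expected reads was calibrated, replicate by replicate, on BCL2-family standards whose Kd was known from biolayer interferometry. Each pool was mated in six replicate cultures.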

Each scFv is VH, three GGGGS repeats, VL, as in the parent Ab-14, and differs from it in the CDRs of the heavy chain only.
VH: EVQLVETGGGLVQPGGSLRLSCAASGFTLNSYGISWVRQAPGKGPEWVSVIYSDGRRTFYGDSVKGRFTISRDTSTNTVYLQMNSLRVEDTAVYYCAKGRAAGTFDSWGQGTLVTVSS
VL: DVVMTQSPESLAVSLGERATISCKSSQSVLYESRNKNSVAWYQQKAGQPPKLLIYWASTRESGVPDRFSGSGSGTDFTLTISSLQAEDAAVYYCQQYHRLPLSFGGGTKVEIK

The parent's heavy chain CDRs are GFTLNSYGIS, VIYSDGRRTFYGDSVK, GRAAGTFDS; each variant's own CDRs replace them letter for letter.
Scale: log10 of Kd in nM, estimated from mating counts; low values are strong binders.
Replicates are averaged; those with no signal do not enter the mean.
The authors' rule: three or more of the six replicates give a measured affinity, fewer mean a poor binder.
Three control strains display no target. For all heavy chain designs, 1% of the pairings with them gave a signal, with a median of 2.08 and one signal in twenty below 0.84, so weak values seen in few replicates may be background. The control count says in how many pairings with the empty strains this scFv gave a signal, with their mean in brackets.
The range of this assay differs from that of the first round, and the authors advise against merging the two.
The parent sequence was in this pool as ten entries: three were never detected, three once, and four in most replicates, with averages from 0.34 to 2.37.

{"CDR-H1": "GFDLNEYGIS", "CDR-H2": "VIYADGVRTFYIDSVK", "CDR-H3": "GENAGTFDM", "log10 Kd (nM) by replicate": "-0.20 / -0.01 / -0.17 / -0.05 / -0.07 / 0.35", "mean log10 Kd (nM)": "-0.03", "empty controls": "0/18"}
{"CDR-H1": "GFDLNEYGIS", "CDR-H2": "VIYADGMRTFYADSVK", "CDR-H3": "GNQAGTFDQ", "log10 Kd (nM) by replicate": "-0.30 / -0.59 / -0.64 / -0.50 / -0.56 / -0.27", "mean log10 Kd (nM)": "-0.48", "empty controls": "1/18 (1.62)"}
{"CDR-H1": "GFDLNEYGIS", "CDR-H2": "VIYADGRRTFYSDSVK", "CDR-H3": "GTAAGTFDI", "log10 Kd (nM) by replicate": "-0.28 / -0.53 / -0.47 / -0.66 / -0.51 / 0.06", "mean log10 Kd (nM)": "-0.40", "empty controls": "0/18"}
{"CDR-H1": "GFDLNEYGIS", "CDR-H2": "VIYADGSRTFYSDSVK", "CDR-H3": "GQSAGTFDA", "log10 Kd (nM) by replicate": "-0.21 / -0.23 / -0.33 / 0.05 / -0.33 / 0.10", "mean log10 Kd (nM)": "-0.16", "empty controls": "0/18"}
{"CDR-H1": "GFDLDEYGIS", "CDR-H2": "VIYADGMRTFYSDSVK", "CDR-H3": "GSTAGTFDV", "log10 Kd (nM) by replicate": "-0.54 / -0.46 / -0.60 / -1.11 / -1.04 / -0.56", "mean log10 Kd (nM)": "-0.72", "empty controls": "0/18"}
{"CDR-H1": "GFDLNEYGIS", "CDR-H2": "VIYADGVRTAYSDSVK", "CDR-H3": "GEAAGTFDL", "log10 Kd (nM) by replicate": "-0.17 / -0.10 / -0.51 / -0.39 / -0.46 / -0.22", "mean log10 Kd (nM)": "-0.31", "empty controls": "0/18"}
{"CDR-H1": "GFDLNEYGIS", "CDR-H2": "VIYADGRRTFYADSVK", "CDR-H3": "GSEAGTFNM", "log10 Kd (nM) by replicate": "-0.48 / -0.71 / -0.60 / -1.10 / -0.76 / -0.67", "mean log10 Kd (nM)": "-0.72", "empty controls": "1/18 (3.12)"}
{"CDR-H1": "GFDLNEYGIS", "CDR-H2": "VIYADGRRTSYIDSVK", "CDR-H3": "GNVAGTFDT", "log10 Kd (nM) by replicate": "-0.82 / -0.38 / 0.54 / -0.81 / -0.28 / -0.72", "mean log10 Kd (nM)": "-0.41", "empty controls": "0/18"}
{"CDR-H1": "GFDLNEYGIS", "CDR-H2": "VIYADGRRTFYADSVK", "CDR-H3": "GEYAGTFDV", "log10 Kd (nM) by replicate": "0.70 / -0.34 / 0.90 / -0.68 / -0.28 / 0.82", "mean log10 Kd (nM)": "0.18", "empty controls": "0/18"}
{"CDR-H1": "GFGLDEYGIS", "CDR-H2": "VIYADGRRTFYADSVK", "CDR-H3": "GENAGTFTM", "log10 Kd (nM) by replicate": "0.02 / -0.09 / 0.36 / -0.08 / 0.41 / 0.40", "mean log10 Kd (nM)": "0.17", "empty controls": "0/18"}
{"CDR-H1": "GFDLNEYGIS", "CDR-H2": "VIYADGRRTFYTDSVK", "CDR-H3": "GQNAGTFDS", "log10 Kd (nM) by replicate": "-0.71 / -0.80 / -0.57 / -0.81 / -0.68 / -0.72", "mean log10 Kd (nM)": "-0.71", "empty controls": "0/18"}
{"CDR-H1": "GFDLNEYGIS", "CDR-H2": "VIYADGRRTFYADSVK", "CDR-H3": "GEEAGTFLV", "log10 Kd (nM) by replicate": "0.57 / 0.57 / 0.62 / 0.16 / -0.14 / 0.80", "mean log10 Kd (nM)": "0.43", "empty controls": "0/18"}
{"CDR-H1": "GFDLNEYGIS", "CDR-H2": "VIYADGRRTAYTDSVK", "CDR-H3": "GHIAGTFDL", "log10 Kd (nM) by replicate": "-0.35 / -0.55 / -0.91 / -0.75 / -0.69 / -0.44", "mean log10 Kd (nM)": "-0.62", "empty controls": "1/18 (1.65)"}
{"CDR-H1": "GFDLNEYGIS", "CDR-H2": "VIYADGRRTQYIDSVK", "CDR-H3": "GNEAGTFDL", "log10 Kd (nM) by replicate": "0.12 / -0.10 / -0.14 / -0.50 / -0.10 / -0.13", "mean log10 Kd (nM)": "-0.14", "empty controls": "0/18"}
{"CDR-H1": "GFDLNEYGIS", "CDR-H2": "VIYADGRRTFYADSVK", "CDR-H3": "GKNAGTFGV", "log10 Kd (nM) by replicate": "-0.36 / -0.32 / -0.78 / -0.75 / -0.31 / -0.39", "mean log10 Kd (nM)": "-0.49", "empty controls": "0/18"}
{"CDR-H1": "GFDLNEYGIS", "CDR-H2": "VIYADGKRTFYSDSVK", "CDR-H3": "GQLAGTFDV", "log10 Kd (nM) by replicate": "0.49 / 0.92 / -0.10 / -0.20 / -1.19 / 0.23", "mean log10 Kd (nM)": "0.03", "empty controls": "0/18"}
{"CDR-H1": "GFDLDEYGIS", "CDR-H2": "VIYADGQRTFYADSVK", "CDR-H3": "GQNAGTFDQ", "log10 Kd (nM) by replicate": "-0.02 / -0.52 / -0.88 / -0.44 / -0.27 / -0.12", "mean log10 Kd (nM)": "-0.38", "empty controls": "0/18"}
{"CDR-H1": "GFDLDEYGIS", "CDR-H2": "VIYADGMRTFYADSVK", "CDR-H3": "GELAGTFDS", "log10 Kd (nM) by replicate": "-0.27 / -0.80 / -0.30 / -0.98 / -0.65 / -0.45", "mean log10 Kd (nM)": "-0.57", "empty controls": "0/18"}
{"CDR-H1": "GFDLNEYGIS", "CDR-H2": "VIYADGVRTFYADSVK", "CDR-H3": "GKNAGTFLV", "log10 Kd (nM) by replicate": "0.97 / 0.85 / 1.05 / 1.03 / 1.36 / 1.20", "mean log10 Kd (nM)": "1.08", "empty controls": "0/18"}
{"CDR-H1": "GFDLNEYGIS", "CDR-H2": "VIYADGRRTFYTDSVK", "CDR-H3": "GGNAGTFDL", "log10 Kd (nM) by replicate": "-0.67 / -1.03 / -0.86 / -0.85 / -0.95 / -0.54", "mean log10 Kd (nM)": "-0.82", "empty controls": "0/18"}
{"CDR-H1": "GFDLNEYGIS", "CDR-H2": "VIYADGRRTAYADSVK", "CDR-H3": "GKNAGTFDQ", "log10 Kd (nM) by replicate": "-0.13 / -0.77 / -0.76 / -0.63 / -0.81 / -0.36", "mean log10 Kd (nM)": "-0.58", "empty controls": "1/18 (1.75)"}
{"CDR-H1": "GFSLDEYGIS", "CDR-H2": "VIYADGRRTFYADSVK", "CDR-H3": "GEAAGTFDI", "log10 Kd (nM) by replicate": "-0.39 / -0.56 / -0.65 / -0.72 / -0.59 / -0.52", "mean log10 Kd (nM)": "-0.57", "empty controls": "0/18"}
{"CDR-H1": "GFDLDEYGIS", "CDR-H2": "VIYADGHRTFYADSVK", "CDR-H3": "GTNAGTFDV", "log10 Kd (nM) by replicate": "-0.28 / -0.50 / -0.59 / -0.62 / -0.54 / -0.45", "mean log10 Kd (nM)": "-0.50", "empty controls": "0/18"}

The closing 2 entries, repeated:

{"CDR-H1": "GFSLDEYGIS", "CDR-H2": "VIYADGRRTFYADSVK", "CDR-H3": "GEAAGTFDI", "log10 Kd (nM) by replicate": "-0.39 / -0.56 / -0.65 / -0.72 / -0.59 / -0.52", "mean log10 Kd (nM)": "-0.57", "empty controls": "0/18"}
{"CDR-H1": "GFDLDEYGIS", "CDR-H2": "VIYADGHRTFYADSVK", "CDR-H3": "GTNAGTFDV", "log10 Kd (nM) by replicate": "-0.28 / -0.50 / -0.59 / -0.62 / -0.54 / -0.45", "mean log10 Kd (nM)": "-0.50", "empty controls": "0/18"}